{"source": "paper PMC8995271", "about": "(Targeted Oncology, 2022)", "origin": "cited, not measured here", "system": "HER1", "conditions": "read-out: half maximal inhibitory concentration for inhibiting the phosphorylation of HER1; ref [17], [23]–[26]; cited from earlier work", "data": [{"smiles": "CS(=O)(=O)CCNCc1ccc(-c2ccc3ncnc(Nc4ccc(OCc5cccc(F)c5)c(Cl)c4)c3c2)o1", "note": "[lapatinib]", "values": [{"measurement": "IC50", "result": 10.8, "unit": "nM"}]}]}
